Tested on: β2AR-T4L
Assay: Competition binding against 0.5 nM [^3H]DHA, Sf9 membranes, β2AR-T4L

Compound: COc1ccc(CC(C)NCC(O)c2ccc(O)c(NC=O)c2)cc1 (stereo not shown)
- affinity of β2AR-T4L relative to wild-type β2AR: two to three-fold higher

Source: patent US9670266B2, “Method and composition for crystallizing G protein-coupled receptors” (The Board of Trustees of the Leland Stanford Junior …, priority 2007, dated 2017)
